Values quoted from earlier work in US11896564B2, “Medical treatment for pathologic inflammation” (PHARMACYL AB, priority 2018, dated 2024).

Test system: ulcerative colitis patients
Details: 58% of placebo patients; cited from earlier work

## Nc1ccc(O)c(C(=O)O)c1 [Example 5-ASA, mesalazine]
  patients who relapsed (maintenance therapy): Forty-one
